“And” between values parts separate entries of the source, which are not always exact repeats. Equal values may be shown once. This is a selection; strong and weak results do not stand in their true shares. Records with an inconclusive call do not appear. The source made the active and inactive calls. Unless noted, the call rests on the fitted dose curve; in most records, active means well fitted curve in the direction sought with a large enough effect in the repeat runs; inconclusive means weak or mixed curves; inactive means no such curve, though single readings can be large; an effect the other way counts as inactive or inconclusive.
Columns and labels:
[1] = qHTS assay for small molecule agonists of the p53 signaling pathway (AID 651631; calls by dose curve; further: nearly all actives have a fitted effect of over 15% in size); conditions: HCT-116 p53RE-bla reporter, beta-lactamase FRET ratio, 16 h
Summary of the method: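 We treat p53RE-bla HCT-116 cells with compounds for 16 h at 37 °C, add LiveBLAzer B/G FRET substrate for 2 h at room temperature, and measure fluorescence intensity.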

[2] = qHTS assay for small molecules that induce genotoxicity in human embryonic kidney cells expressing luciferase-tagged ATAD5 (AID 651632); conditions: HEK293T ATAD5-luciferase induction, 16 h; series mostly up to 83.3 µM; further: nearly all actives have a fitted effect of over 15% in size
Summary of the method: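 DMSO vehicle served as the control. HEK293T reporter cells, 16 hr at 37C, then 30 min Amplite at room temperature; ATAD5 induction is measured as luciferase activity.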

[3] = qHTS assay for small molecules that induce genotoxicity in human embryonic kidney cells expressing luciferase-tagged ATAD5 - cell viability (AID 651634; calls by dose curve; further: nearly all actives have a fitted effect of over 25% in size); conditions: HEK293T ATAD5-luc cells viability, CellTiter-Fluor, 15.5 h
Summary of the method: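 Here HEK293T cells with the ATAD5 luciferase reporter are incubated with test compounds for 15.5 hr, and cytotoxicity is then gauged by measuring protease activity in live cells using fluorescence.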

[4] = qHTS assay for small molecule disruptors of the mitochondrial membrane potential (AID 720635); conditions: HepG2 mitochondrial membrane potential, Mito-MPS dye ratio; series mostly up to 83.2 µM
Summary of the method: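 Mitochondrial membrane potential tracked with Mito-MPS dye, red aggregates (ex 540/em 590 nm) against green monomers (ex 490/em 535 nm). Compound treatment 1 hr at 37C, dye 30 min in HepG2.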

[5] = qHTS assay to test for compound auto fluorescence at 590 nm (red) in HepG2 cells (AID 720674); conditions: HepG2 autofluorescence, red 540/590 nm, 1 h
Summary of the method: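 1 hr compound incubation on HepG2 cells, 37 C, 5% CO2; plate read ex 540 nm / em 590 nm; intensities reported as Rose Bengal sodium equivalents.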

[6] = qHTS assay to test for compound auto fluorescence at 460 nm (blue) in HEK293 cells (AID 720678); conditions: blue autofluorescence 405/460 nm
Summary of the method: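 Cells were seeded and left to adhere for 4-5 hr at 37C. Compounds were then pin-transferred. After an overnight incubation at 37C under 5% CO2, intrinsic fluorescence at 405/460 nm was measured and referenced to triamterene.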

[7] = qHTS assay to test for compound auto fluorescence at 535 nm (green) in HEK293 cells (AID 720680); conditions: green autofluorescence 485/535 nm
[8] = qHTS assay to test for compound auto fluorescence at 535 nm (green) in HEK293 cell free culture (AID 720682); conditions: cell-free medium, green autofluorescence 485/535 nm, active compounds read high
Summary of the method: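 Green-channel intensity (Ex/Em 485/535 nm) was recorded from compound-treated wells containing only DMEM with 10% FBS. Fluorescein provided the equivalency standard.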

[9] = qHTS assay to test for compound auto fluorescence at 590 nm (red) in HEK293 cell free culture (AID 720683); conditions: cell-free medium autofluorescence, Ex540/Em590 red
Summary of the method: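 Red-channel autofluorescence of compounds in culture medium (DMEM, 10% FBS), no cells, measured at 540/590 nm. Rose Bengal sodium is the reference fluorophore for equivalence.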

[10] = qHTS assay to test for compound auto fluorescence at 590 nm (red) in HepG2 cell free culture (AID 720684); conditions: cell-free medium autofluorescence, red 540/590 nm
Summary of the method: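 Cell-free; medium MEM + 10% FBS; compound or DMSO added by pintool; read Ex 540/Em 590 nm; Rose Bengal sodium as red reference fluorophore.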
On the % scale 0 is the no-effect control and ±100 the full control effect.

O=[N+]([O-])OCC(CO[N+](=O)[O-])(CO[N+](=O)[O-])CO[N+](=O)[O-]
inactive: activation ([1]; at 73.3 µM (top of the series)) -1.08% | Potency [2] | activity, negative = cytotoxicity ([3]; at 83.3 µM (top of the series)) -8.11% and -4.09% | Potency [4] | fluorescence, relative to Rose Bengal ([5]; at 46 µM (top of the series)) 0.622% | fluorescence, relative to Rose Bengal ([5]; at 91.3 µM (top of the series)) -0.234% | fluorescence, % of triamterene ([6]; at 46 µM (top of the series)) -0.258% | fluorescence, % of triamterene ([6]; at 91.3 µM (top of the series)) -0.217% | fluorescence, % of fluorescein ([7]; at 46 µM (top of the series)) 0.014% | fluorescence, % of fluorescein ([7]; at 91.3 µM (top of the series)) -0.0189% | activity change ([8]; at 46 µM (top of the series)) 0.009% | activity change ([8]; at 91.3 µM (top of the series)) 0.0811% | fluorescence, % of fluorescent control ([9]; at 46 µM (top of the series)) -0.0563% | fluorescence, % of fluorescent control ([9]; at 91.3 µM (top of the series)) -0.393% | fluorescence, % of Rose Bengal ([10]; at 46 µM (top of the series)) -0.425% | fluorescence, % of Rose Bengal ([10]; at 91.3 µM (top of the series)) -0.0457%

N=C(N)N[N+](=O)[O-]
inactive: activation ([1]; at 95.1 µM (top of the series)) 1.98% | Potency [2] | activity, negative = cytotoxicity ([3]; at 95.3 µM (top of the series)) 9.91% | fluorescence, relative to Rose Bengal ([5]; at 95.7 µM (top of the series)) 0.0139% | fluorescence, % of triamterene ([6]; at 95.7 µM (top of the series)) -0.12% | fluorescence, % of fluorescein ([7]; at 95.7 µM (top of the series)) -0.0112% | activity change ([8]; at 95.7 µM (top of the series)) -0.0339% | fluorescence, % of fluorescent control ([9]; at 95.7 µM (top of the series)) 0.143% | fluorescence, % of Rose Bengal ([10]; at 95.7 µM (top of the series)) 0.0008%

CP(=O)(O)OCCC[Si](O)(O)O
inactive: Potency [2] | activity, negative = cytotoxicity ([3]; at 83.3 µM (top of the series)) 12.6% | fluorescence, relative to Rose Bengal ([5]; at 91.3 µM (top of the series)) 0.254% | fluorescence, % of triamterene ([6]; at 91.3 µM (top of the series)) 0.0795% | fluorescence, % of fluorescein ([7]; at 91.3 µM (top of the series)) 0.0049% | activity change ([8]; at 91.3 µM (top of the series)) 0.0223% | fluorescence, % of fluorescent control ([9]; at 91.3 µM (top of the series)) 0.341% | fluorescence, % of Rose Bengal ([10]; at 91.3 µM (top of the series)) 0.121%

CC(C)OP(C)(=O)OC(C)C
inactive: activation ([1]; at 73.3 µM (top of the series)) -0.98% and -8.17% | Potency [2] | activity, negative = cytotoxicity ([3]; at 83.3 µM (top of the series)) 13.8% and 11.2% | fluorescence, relative to Rose Bengal ([5]; at 91.3 µM (top of the series)) -0.2% and -0.0996% | fluorescence, % of triamterene ([6]; at 91.3 µM (top of the series)) 0.0048% and -0.14% | fluorescence, % of fluorescein ([7]; at 91.3 µM (top of the series)) -0.0774% and -0.0198% | activity change ([8]; at 91.3 µM (top of the series)) 0.0093% and -0.0208% | fluorescence, % of fluorescent control ([9]; at 91.3 µM (top of the series)) -0.147% and -0.0693% | fluorescence, % of Rose Bengal ([10]; at 91.3 µM (top of the series)) 0.341% and 0.157%

CCOP(=O)(CC)Oc1ccc([N+](=O)[O-])cc1 (stereo not drawn)
inactive: Potency [2] | activity, negative = cytotoxicity ([3]; at 83.3 µM (top of the series)) -22.9% | fluorescence, relative to Rose Bengal ([5]; at 46 µM (top of the series)) 0.279% | fluorescence, % of triamterene ([6]; at 46 µM (top of the series)) -0.156% | fluorescence, % of fluorescein ([7]; at 46 µM (top of the series)) -0.222% | activity change ([8]; at 46 µM (top of the series)) -0.0882% | fluorescence, % of fluorescent control ([9]; at 46 µM (top of the series)) 0.148% | fluorescence, % of Rose Bengal ([10]; at 46 µM (top of the series)) -0.195%

CC(C)N(CCO)C(C)C
inactive: activation ([1]; at 73.3 µM (top of the series)) -3.98% | Potency [2] | activity, negative = cytotoxicity ([3]; at 83.3 µM (top of the series)) 15.9% | fluorescence, relative to Rose Bengal ([5]; at 91.3 µM (top of the series)) 0.069% | fluorescence, % of triamterene ([6]; at 91.3 µM (top of the series)) 0.237% | fluorescence, % of fluorescein ([7]; at 91.3 µM (top of the series)) 0.0128% | activity change ([8]; at 91.3 µM (top of the series)) 0.031% | fluorescence, % of fluorescent control ([9]; at 91.3 µM (top of the series)) 0.0027% | fluorescence, % of Rose Bengal ([10]; at 91.3 µM (top of the series)) 0.0198%

COc1ccc([N+](=O)[O-])cc1[N+](=O)[O-]
inactive: activation ([1]; at 73.3 µM (top of the series)) -3.72% | Potency [2] | activity, negative = cytotoxicity ([3]; at 83.3 µM (top of the series)) 17.5% | fluorescence, relative to Rose Bengal ([5]; at 91.3 µM (top of the series)) 0.136% | fluorescence, % of triamterene ([6]; at 91.3 µM (top of the series)) -0.0093% | fluorescence, % of fluorescein ([7]; at 91.3 µM (top of the series)) 0.055% | activity change ([8]; at 91.3 µM (top of the series)) 0.0032% | fluorescence, % of fluorescent control ([9]; at 91.3 µM (top of the series)) 0.0033% | fluorescence, % of Rose Bengal ([10]; at 91.3 µM (top of the series)) 0.0164%

Source: PubChem BioAssay (Tox21)
